Chains of the proteins cited; added tags and fusions are not shown.
UniProt Q96RU2, whole entry: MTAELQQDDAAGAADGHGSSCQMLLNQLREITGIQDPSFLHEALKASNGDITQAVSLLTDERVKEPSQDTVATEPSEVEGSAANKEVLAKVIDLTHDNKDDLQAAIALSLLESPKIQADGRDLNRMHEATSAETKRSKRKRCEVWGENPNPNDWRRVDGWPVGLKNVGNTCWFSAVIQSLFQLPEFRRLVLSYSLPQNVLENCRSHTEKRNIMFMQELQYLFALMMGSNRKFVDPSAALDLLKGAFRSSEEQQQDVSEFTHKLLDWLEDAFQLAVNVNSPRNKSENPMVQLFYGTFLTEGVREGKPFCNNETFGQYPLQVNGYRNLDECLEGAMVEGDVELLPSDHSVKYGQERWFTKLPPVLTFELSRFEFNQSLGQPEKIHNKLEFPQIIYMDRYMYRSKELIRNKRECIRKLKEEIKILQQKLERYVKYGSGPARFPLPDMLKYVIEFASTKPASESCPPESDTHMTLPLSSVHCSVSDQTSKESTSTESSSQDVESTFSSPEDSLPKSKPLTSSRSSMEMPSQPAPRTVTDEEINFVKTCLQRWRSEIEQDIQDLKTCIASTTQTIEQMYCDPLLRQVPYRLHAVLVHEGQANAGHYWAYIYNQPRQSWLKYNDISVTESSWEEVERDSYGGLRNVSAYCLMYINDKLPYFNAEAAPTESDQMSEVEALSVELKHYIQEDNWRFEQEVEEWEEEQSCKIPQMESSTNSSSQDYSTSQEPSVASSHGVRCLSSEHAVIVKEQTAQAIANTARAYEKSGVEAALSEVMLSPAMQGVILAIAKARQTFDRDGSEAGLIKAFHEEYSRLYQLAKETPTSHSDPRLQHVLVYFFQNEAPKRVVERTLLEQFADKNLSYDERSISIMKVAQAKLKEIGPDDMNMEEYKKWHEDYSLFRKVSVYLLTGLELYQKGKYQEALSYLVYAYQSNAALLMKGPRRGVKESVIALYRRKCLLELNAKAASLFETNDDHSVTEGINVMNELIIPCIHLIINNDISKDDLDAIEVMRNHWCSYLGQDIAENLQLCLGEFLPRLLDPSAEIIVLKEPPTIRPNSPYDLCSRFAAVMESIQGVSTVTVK

The entries are a selection whose mix differs from that of the whole data set. Some tests of the compounds listed are not included; inactive here does not mean inactive elsewhere. Calls of active or inactive are those of the source. Cut-off read from the data, not from the text of the source: active = inhibition above about 30%; inactive = the rest.
The molecules below were run against Ubiquitin carboxyl-terminal hydrolase 28 (Homo sapiens) (UniProt Q96RU2) (assay: inhibitors of human USP28 deubiquitinase (AID 1645857)). Conditions: purified USP28, Ub-rhodamine cleavage fluorescence, 30 min; at 25 µM; hits give high values.
For `O=C(NCC1(N2CCCCC2)CCCCC1)c1ccc2ccccc2c1`, the inhibition was inactive: -5.46%. In the case of `O=C(NCC1(N2CCOCC2)CCCCC1)c1ccccc1F`, the inhibition is reported as inactive: -4.59%. `Cc1c(C(=O)NCC2(N(C)C)CCCCC2)oc2ccccc12` was tested, and the inhibition was inactive: -3.88%. `Cc1c(C(=O)NCC2(N(C)C)CCCCC2)oc2ccc(F)cc12` was tested, and the inhibition was inactive: 9.53%. For `COc1cccc(C(=O)NCC2(N3CCCCC3)CCCCC2)c1`, the inhibition was inactive: -33.4%. With `COc1ccc(C(=O)NCC2(N3CCOCC3)CCCCC2)cc1` the inhibition was inactive: -2.83%. `O=C(NCC1(N2CCCCC2)CCCCC1)c1ccc2c(c1)OCCO2` was tested, and the inhibition was inactive: 4.34%.

Reference: PubChem BioAssay AID1645857 (Buhrlage Lab, Dana-Farber Cancer Institute and Novartis …, 2021)
